Test results: patent US9428496B2, “Thiazolamine derivative and use thereof as anti-picornaviral infection medicament” (Institute of Pharmacology and Toxicology Academy of …, priority 2010, dated 2016)

How the values were obtained:
[1] = tested on: enterovirus EV71 (Shenzhen 98); assay: Inhibition of cytopathic effect (CPE) induced by EV71 in Vero cells; format: cell-based
Description: (§1) Anti-picornaviral activity of the compounds of the present invention in in vitro model Test item: activity screening of compounds against enteroviruses EV71 and Cox A16 Test principle: using Vero cells as virus host, the cytopathic effect of Vero cells induced by the inhibition of compounds against enteroviruses EV71 and Cox A16 was measured.
(§2) 1. Virus strains: enteroviruses EV71 (Shenzhen 98) and Cox A16, passaging in the laboratory.
(§3) Test Method: Vero cells were incubated in a 96-well culture plate. After 24 hours, they were infected with EV71 and Cox A16 by adsorption for 2 hours. After discarding the virus solution, maintenance solutions containing different concentrations of samples and positive controls were added, and, at the same time, cell control wells and virus control wells were set. […] The half inhibitory concentrations (IC50) of the samples against EV71 and Cox A16 were respectively calculated according to the Reed-Muench method.

enterovirus Cox A16 = format: cell-based; conditions: CoxA16, Vero cells
Description: as §1, §2, §3

`NC(=O)c1ncn([C@@H]2O[C@H](CO)[C@@H](O)[C@H]2O)n1` [Con, ribavirin, reference compound] was tested, and the “EV71 SI” value [1] was 3.9 and the “CoxA16 SI” value (enterovirus Cox A16) was 5.5.
